From patent publication US10961200B2, “Small molecule inhibitors of lactate dehydrogenase and methods of use thereof” (THE UNITED STATES OF AMERICA, AS REPRESENTED BY THE …, priority 2014, dated 2021)

Target: Human LDHA (Homo sapiens (Human), UniProt P00338)
Assay: human LDHA primary biochemical assay (resazurin/diaphorase coupled, fluorescence)
[1] = read-out: Inhibitory activity IC50
[2] = LDHA inhibitory activity, activity level based on IC50 (Table 7)

**Q.** `NS(=O)(=O)c1ccc(Cc2c(-c3ccc(F)c(F)c3)nn(-c3nc(C(=O)O)cs3)c2O)cc1` [Compound 53, 2-(3-(3,4-difluorophenyl)-5-hydroxy-4-(4-sulfamoylbenzyl)-1H-pyrazol-1-yl)thiazole-4-carboxylic acid] was tested. Which IC50 (LDHA inhibitory activity, assay of Example 1, activity level classes) did it give?
**A.** 100 to 1000 nM

**Q.** With `NS(=O)(=O)c1ccc(Cc2c(-c3cccc(-c4ccccc4)c3)nn(-c3nc(C(=O)O)cs3)c2O)cc1` [Compound 54, 2-(3-([1,1′-biphenyl]-3-yl)-5-hydroxy-4-(4-sulfamoylbenzyl)-1H-pyrazol-1-yl)thiazole-4-carboxylic acid] as the molecule, how does the IC50 [1] read?
**A.** 100 to 1000 nM

**Q.** With `NS(=O)(=O)c1ccc(Cc2c(-c3cccc(-c4ccccc4F)c3)nn(-c3nc(C(=O)O)cs3)c2O)cc1` [Compound 55, 2-(3-(2′-fluoro-[1,1′-biphenyl]-3-yl)-5-hydroxy-4-(4-sulfamoylbenzyl)-1H-pyrazol-1-yl)thiazole-4-carboxylic acid] as the molecule, how does the IC50 [1] read?
**A.** 100 to 1000 nM

**Q.** How did the IC50 [1] turn out when `NS(=O)(=O)c1ccc(Cc2c(-c3cccc(Br)c3)nn(-c3nc(C(=O)O)cs3)c2O)cc1` [Compound 69, 2-(3-(3-bromophenyl)-5-hydroxy-4-(4-sulfamoylbenzyl)-1H-pyrazol-1-yl)thiazole-4-carboxylic acid] was run?
**A.** 1000 to 57000 nM

**Q.** How did the IC50 [1] turn out when `NS(=O)(=O)c1ccc(Cc2c(-c3ccccc3)nn(-c3nc(C(=O)O)cs3)c2-c2cccnc2)cc1` [Compound 157, 2-(3-phenyl-5-(pyridin-3-yl)-4-(4-sulfamoylbenzyl)-1H-pyrazol-1-yl)thiazole-4-carboxylic acid] was run?
**A.** 100 to 1000 nM

**Q.** `O=C(O)c1csc(-n2nc(-c3ccc(F)cc3)cc2C(F)(F)F)n1` [Compound 426] was tested. Which IC50 [2] did it give?
**A.** 1000 to 57000 nM

**Q.** How did the IC50 [2] turn out when `NS(=O)(=O)c1ccc(Cc2c(-c3ccc(F)c(F)c3)nn(-c3nc(C(=O)O)cs3)c2O)cc1` [Compound 452, 2-(3-(3,4-difluorophenyl)-5-hydroxy-4-(4-sulfamoylbenzyl)-1H-pyrazol-1-yl)thiazole-4-carboxylic acid] was run?
**A.** 100 to 1000 nM

Read-outs that look alike come from different tables or passages of the source.
